# PubChem BioAssay AID720700 (The Scripps Research Institute Molecular Screening Center, 2013)
# Protein sequences, listed by entry. Tags and fused reporters are not part of them.
# UniProt P19174, whole entry: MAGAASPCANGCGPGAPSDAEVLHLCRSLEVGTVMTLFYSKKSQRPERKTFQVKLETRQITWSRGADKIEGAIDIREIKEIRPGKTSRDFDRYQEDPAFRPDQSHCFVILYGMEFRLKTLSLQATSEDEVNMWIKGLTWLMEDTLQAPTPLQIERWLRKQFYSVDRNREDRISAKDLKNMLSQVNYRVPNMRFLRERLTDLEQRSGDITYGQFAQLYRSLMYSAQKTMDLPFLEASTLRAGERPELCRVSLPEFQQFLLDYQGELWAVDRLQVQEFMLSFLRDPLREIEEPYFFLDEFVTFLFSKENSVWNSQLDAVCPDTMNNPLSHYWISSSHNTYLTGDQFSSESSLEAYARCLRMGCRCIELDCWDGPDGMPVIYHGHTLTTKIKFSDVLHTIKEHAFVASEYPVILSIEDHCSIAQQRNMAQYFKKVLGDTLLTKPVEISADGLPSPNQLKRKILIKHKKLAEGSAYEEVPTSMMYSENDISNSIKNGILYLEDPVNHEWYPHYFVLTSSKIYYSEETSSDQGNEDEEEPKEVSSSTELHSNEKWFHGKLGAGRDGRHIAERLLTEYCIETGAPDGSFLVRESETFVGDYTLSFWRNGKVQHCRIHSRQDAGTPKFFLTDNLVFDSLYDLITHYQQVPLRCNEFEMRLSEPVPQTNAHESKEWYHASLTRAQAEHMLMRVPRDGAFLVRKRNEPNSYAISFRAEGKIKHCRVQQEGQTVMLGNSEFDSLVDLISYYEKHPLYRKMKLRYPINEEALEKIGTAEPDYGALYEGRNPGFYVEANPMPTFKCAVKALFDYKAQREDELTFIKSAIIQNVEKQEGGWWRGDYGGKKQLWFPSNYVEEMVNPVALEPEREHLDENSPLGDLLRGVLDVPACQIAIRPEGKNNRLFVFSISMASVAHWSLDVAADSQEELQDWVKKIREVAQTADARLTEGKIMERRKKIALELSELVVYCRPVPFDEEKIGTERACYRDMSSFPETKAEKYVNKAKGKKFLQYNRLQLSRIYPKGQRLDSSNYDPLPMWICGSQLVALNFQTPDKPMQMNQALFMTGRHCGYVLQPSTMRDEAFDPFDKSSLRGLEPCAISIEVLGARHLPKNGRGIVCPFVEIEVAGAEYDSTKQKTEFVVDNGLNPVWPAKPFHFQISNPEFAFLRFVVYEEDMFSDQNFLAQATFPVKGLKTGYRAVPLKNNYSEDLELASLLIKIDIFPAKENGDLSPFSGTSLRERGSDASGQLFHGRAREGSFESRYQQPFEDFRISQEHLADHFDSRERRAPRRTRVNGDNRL
# The entries are a selection whose mix differs from that of the whole data set. Activity calls are given as the source filed them. No stated cut-off is given here; in the data, active means inhibition above about 9.5%; inactive means the rest.
# Target: 1-phosphatidylinositol 4,5-bisphosphate phosphodiesterase gamma-1 (Homo sapiens) (UniProt P19174)
# Experiment: blockers of human PLCG1 activity – biochemical, fluorescence, purified enzyme, primary screen (AID 720700)
# Conditions: purified PLC-gamma1, fluorogenic substrate, at 12.2 µM, stronger effect = higher value
row,SMILES,inhibition
1,CC(C)(C)OC(=O)N1CCC(N(C(=O)c2ccccc2)c2ccc(Cl)cc2)CC1,inactive: 3.81%
2,N#Cc1ccc(C(=O)NCC2(N3CCCCC3)CCCCC2)cc1,inactive: 1.69%
3,CC(C)(C)n1nnnc1C(c1cccc2ccccc12)N1CCC(n2c(=O)[nH]c3ccccc32)CC1 (stereo not given),inactive: -0.45%
4,c1ccc(CN2CCC(Nc3ccccc3)CC2)cc1,inactive: -1.23%
5,C/C(N)=N\P(=O)(Oc1ccccc1)Oc1ccccc1,inactive: 0.83%
6,Cc1cc(N(CCCl)CCCl)ccc1C=O,inactive: 3.6%
7,O=c1[nH]c2ccccc2n1C1CCN(C(c2ccccc2)c2nnnn2C2CCCC2)CC1 (stereo not given),inactive: 1%
8,CCCN1CCC(Nc2cc(OC)cc(OC)c2)CC1,inactive: -2.99%
9,CN(C)C1(CNC(=O)c2cccc(C#N)c2)CCCCC1,inactive: 4.4%
10,COc1ccc(C(=O)NCC2(N3CCOCC3)CCCCC2)cc1OC,inactive: 1.89%
11,O=c1[nH]c2ccccc2n1C1CCN(C(c2ccnc3ccccc23)c2nnnn2C2CCCC2)CC1 (stereo not given),inactive: 4.92%
12,O=c1[nH]c2ccccc2n1C1CCN(C(c2cccs2)c2nnnn2C2CCCCC2)CC1 (stereo not given),inactive: 4.54%
13,NC(=O)C1(Nc2ccccc2)CCN(Cc2ccccc2)CC1,inactive: -1.16%
14,O=C(NCC1(N2CCOCC2)CCCCC1)c1cc(Br)ccc1Cl,inactive: 1.98%
15,CCCCn1nnnc1C(c1ccccc1)N1CCC(n2c(=O)[nH]c3ccccc32)CC1 (stereo not given),inactive: -1.3%
16,COc1cc(C(=O)NCC2(N3CCOCC3)CCCCC2)cc(OC)c1C,inactive: 0.35%
17,CCCCn1nnnc1C(c1cccc(OC)c1OC)N1CCC(n2c(=O)[nH]c3ccccc32)CC1 (stereo not given),inactive: 1.57%
18,O=C(OC1CN2CCC1CC2)C1c2ccccc2C=Cc2ccccc21 (stereo not given),inactive: -1.3%
19,O=c1[nH]c2ccccc2n1C1CCN(C(c2cccs2)c2nnnn2C2CCCC2)CC1 (stereo not given),inactive: 2.34%
20,N/C(=N\O)c1c(N)no[n+]1[O-],inactive: -2.36%
21,COc1cccc(C(c2nnnn2C(C)(C)C)N2CCC(n3c(=O)[nH]c4ccccc43)CC2)c1OC (stereo not given),inactive: 0.29%
22,CCOC(=O)N1CCC(Nc2ccc(C)cc2)CC1,inactive: -3.53%

row,SMILES,inhibition
1,CCCOc1ccc(C(=O)NCC2(N(C)C)CCCCC2)cc1,inactive: -0.49%
2,O=c1[nH]c2ccccc2n1C1CCN(C(c2cc3ccccc3o2)c2nnnn2C2CCCC2)CC1 (stereo not given),inactive: 1.17%
3,CC(C)(C)OC(=O)N1CCC(Nc2ccccc2)CC1,inactive: -0.91%
4,NN(c1ccccc1)C1CCN(CCc2ccccc2)CC1,inactive: -0.9%
5,O=C(O)C1(Nc2ccccc2)CCN(Cc2ccccc2)CC1,inactive: -1.15%
6,CCOc1ncccc1C(=O)NCC1(N2CCOCC2)CCCCC1,inactive: -1.71%
7,CN1CCC(Nc2ccc(F)c(Cl)c2)CC1,inactive: 1.76%
8,CN1CCC(Nc2ccc(Cl)cc2)CC1,inactive: 1.38%
9,CCC(CO)(C(=O)OC1CN2CCC1CC2)c1ccccc1 (stereo not given),inactive: 4.11%
10,COc1cccc(C(=O)N(c2cc(C)cc(C)c2)C2CCN(C(=O)OC(C)(C)C)CC2)c1,inactive: 0.22%
11,COc1cccc(C(c2nnnn2C2CCCC2)N2CCC(n3c(=O)[nH]c4ccccc43)CC2)c1OC (stereo not given),inactive: 3.65%
12,COc1cc(OC)cc(C(=O)NCC2(N3CCOCC3)CCCCC2)c1,inactive: 1.14%
13,Cc1ccc(NC2(C#N)CCN(Cc3ccccc3)CC2)cc1,inactive: 6.04%
14,Cc1ccc(C(=O)NCC2(N3CCCCC3)CCCCC2)o1,inactive: -0.02%
15,Fc1ccccc1NC1CCN(Cc2ccccc2)CC1,inactive: 5.68%
16,O=c1[nH]c2ccccc2n1C1CCN(C(c2ccnc3ccccc23)c2nnnn2C2CCCCC2)CC1 (stereo not given),inactive: 7.85%
17,COc1cc(OC)cc(C(=O)NCC2(N3CCCCC3)CCCCC2)c1,inactive: -0.07%
18,CC(=O)N(c1ccccc1)C1CCNCC1,inactive: -1.43%
19,COc1cccc(C(c2nnnn2C2CCCCC2)N2CCC(n3c(=O)[nH]c4ccccc43)CC2)c1OC (stereo not given),inactive: 4.35%
20,CCC(c1nnnn1C1CCCCC1)N1CCC(n2c(=O)[nH]c3ccccc32)CC1 (stereo not given),active: 9.91%
21,O=C(NCC1(N2CCCCC2)CCCCC1)c1ccco1,inactive: -3.82%
22,Cn1c(=O)[nH]cc(N(CCCl)CCCl)c1=O,inactive: -1.28%

row,SMILES,inhibition
1,CN(C)c1ccc(C(=O)NCC2(N3CCCCC3)CCCCC2)cc1,inactive: -2.53%
2,Cc1ccccc1NC1(C#N)CCN(Cc2ccccc2)CC1,inactive: 0.32%
3,CC(C)(C)n1nnnc1C(c1ccnc2ccccc12)N1CCC(n2c(=O)[nH]c3ccccc32)CC1 (stereo not given),inactive: -0.29%
4,CCN1CCC(Nc2cccc(F)c2)CC1,inactive: 4.73%
5,COc1ccc(C(c2nnnn2C2CCCCC2)N2CCC(n3c(=O)[nH]c4ccccc43)CC2)cc1 (stereo not given),inactive: -0.5%
6,O=C(NCC1(N2CCCCC2)CCCCC1)c1ccc(F)cc1,inactive: 1.86%
7,CCCCOc1ccc(C(=O)NCC2(N3CCOCC3)CCCCC2)cc1,inactive: 4.18%
8,O=P1(N(CCCl)CCCl)SCCCS1,inactive: 3.08%
9,CCCCn1nnnc1C(c1cc2ccccc2o1)N1CCC(n2c(=O)[nH]c3ccccc32)CC1 (stereo not given),inactive: 0.75%
10,CCOC(=O)N1CCC(Nc2ccc(F)cc2)CC1,inactive: 3.16%
11,COc1ccc(NC2CCN(CCc3ccccc3)CC2)c(OC)c1,inactive: -1.39%
12,CCOc1ccc(C)cc1CN(CCCl)CCCl,inactive: 3.12%
13,CC(C)(C)n1nnnc1C(c1ccccc1)N1CCC(n2c(=O)[nH]c3ccccc32)CC1 (stereo not given),inactive: 3.26%
14,O=C1CCN(Cc2ccccc2)CC1,inactive: -2.27%
15,O=c1[nH]c2ccccc2n1C1CCN(C(c2cccc3ccccc23)c2nnnn2C2CCCC2)CC1 (stereo not given),inactive: -1.06%
16,COc1cc(C(=O)NCC2(N(C)C)CCCCC2)ccc1OC(F)F,inactive: 0.12%
17,CCOC(=O)N1CCC(Nc2cccc(C)c2)CC1,inactive: 0.86%
18,O=c1[nH]c2ccccc2n1C1CCN(C(c2ccccc2)c2nnnn2C2CCCCC2)CC1 (stereo not given),inactive: -1.19%
19,CSc1ccccc1C(=O)NCC1(N2CCCCC2)CCCCC1,inactive: -2.23%
20,Cc1cccc(NC2(C#N)CCN(Cc3ccccc3)CC2)c1,inactive: 7.74%
21,O=C(NCC1(N2CCCCC2)CCCCC1)c1ccc(=O)[nH]c1,inactive: -1.12%
22,CCCCn1nnnc1C(c1cccs1)N1CCC(n2c(=O)[nH]c3ccccc32)CC1 (stereo not given),inactive: 0.06%

row,SMILES,inhibition
1,O=C(NCC1(N2CCCCC2)CCCCC1)c1cccs1,inactive: -4.7%
2,CCCCn1nnnc1C(CC)N1CCC(n2c(=O)[nH]c3ccccc32)CC1 (stereo not given),inactive: 1.03%
3,COc1ccc(C(=O)NCC2(N3CCCCC3)CCCCC2)cc1,inactive: -1.73%
4,CCC(c1nnnn1C1CCCC1)N1CCC(n2c(=O)[nH]c3ccccc32)CC1 (stereo not given),inactive: 1.74%
5,CC(C)(C)OC(=O)N1CCC(N(C(=O)c2ccccc2)c2ccc(F)cc2)CC1,inactive: 4.91%
6,COc1ccc(C(=O)NCC2(N3CCCCC3)CCCCC2)c(OC)c1OC,inactive: -3.2%
7,CCOC(=O)N1CCC(Nc2ccc(OC)cc2)CC1,inactive: 0.24%
8,CCCCn1nnnc1C(c1ccc(OC)cc1)N1CCC(n2c(=O)[nH]c3ccccc32)CC1 (stereo not given),inactive: -1.4%
9,O=c1[nH]c2ccccc2n1C1CCN(C(c2cc3ccccc3o2)c2nnnn2C2CCCCC2)CC1 (stereo not given),inactive: -1.12%
10,O=C(OC1CN2CCC1CC2)C1c2ccccc2Oc2ccccc21 (stereo not given),inactive: -0.04%
11,N#CC1(Nc2ccccc2)CCN(Cc2ccccc2)CC1,inactive: -1.49%
12,O=C(NCC1(N2CCCCC2)CCCCC1)c1ccc(Cl)s1,inactive: -1.45%
13,COc1ccc(Cl)cc1C(=O)NCC1(N2CCOCC2)CCCCC1,inactive: 2.75%
14,O=C(NCC1(N2CCOCC2)CCCCC1)c1cc2ccccc2o1,inactive: -2.26%
15,O=c1[nH]c2ccccc2n1C1CCN(C(c2ccccc2OC(F)(F)F)c2nnnn2C2CCCCC2)CC1 (stereo not given),inactive: 4.05%
16,O=C(NCC1(N2CCCCC2)CCCCC1)c1ccc(Cl)nc1,inactive: -11.2%
17,Cc1cc(C)cc(N(C(=O)c2ccccc2)C2CCN(C(=O)OC(C)(C)C)CC2)c1,inactive: 0.8%
18,CCCCn1nnnc1C(c1ccnc2ccccc12)N1CCC(n2c(=O)[nH]c3ccccc32)CC1 (stereo not given),inactive: -0.07%
19,COc1cc(OC)c(C(=O)NCC2(N(C)C)CCCCC2)cc1OC,inactive: 2.55%
20,CCC(c1nnnn1C(C)(C)C)N1CCC(n2c(=O)[nH]c3ccccc32)CC1 (stereo not given),inactive: 1.7%
21,O=C(NCC1(N2CCOCC2)CCCCC1)c1cc(F)c(F)cc1Cl,inactive: 0.65%
22,COC(=O)C1(Nc2ccccc2)CCN(Cc2ccccc2)CC1,inactive: -1.33%

row,SMILES,inhibition
1,COc1ccc(CN(CCCl)CCCl)cc1Cl,inactive: 7.38%
2,CN(C)c1cccc(C(=O)NCC2(N3CCCCC3)CCCCC2)c1,inactive: -53.3%
3,CC(C)c1ccc(NC2CCN(C(=O)OC(C)(C)C)CC2)cc1,inactive: -0.22%
4,Cc1ccc(C(=O)NCC2(N(C)C)CCCCC2)o1,inactive: 3.16%
5,CCCOc1ccc(C(=O)NCC2(N(C)C)CCCCC2)cc1OC,inactive: -1%
6,COc1ccc(C(c2nnnn2C2CCCC2)N2CCC(n3c(=O)[nH]c4ccccc43)CC2)cc1 (stereo not given),inactive: 5.12%
7,O=C(NCC1(N2CCCCC2)CCCCC1)c1cncc(Br)c1,inactive: 2.17%
8,CN1CCC(Nc2cccc(F)c2)CC1,inactive: 1.68%
9,CSc1ccc(C(=O)NCC2(N3CCOCC3)CCCCC2)cc1,inactive: 2.39%
10,O=C(NCC1(N2CCCCC2)CCCCC1)c1cccc([N+](=O)[O-])c1,inactive: -0.17%
11,CCN1CCC(Nc2ccc(Cl)cc2)CC1,inactive: 3.03%
12,N#CC1(Nc2ccccc2)CCN(CCc2ccccc2)CC1,inactive: 1.36%
13,O=c1[nH]c2ccccc2n1C1CCN(C(c2ccccc2OC(F)(F)F)c2nnnn2C2CCCC2)CC1 (stereo not given),inactive: -0.04%
14,CC(C)(C)n1nnnc1C(c1ccccc1OC(F)(F)F)N1CCC(n2c(=O)[nH]c3ccccc32)CC1 (stereo not given),inactive: -0.84%
15,O=C(NCC1(N2CCCCC2)CCCCC1)c1ccc(OC(F)F)cc1,inactive: 1.16%
16,CCCCn1nnnc1C(c1cccc2ccccc12)N1CCC(n2c(=O)[nH]c3ccccc32)CC1 (stereo not given),inactive: 3.27%
17,CC(C)c1ccc(C(=O)NCC2(N3CCOCC3)CCCCC2)cc1,inactive: -2.77%
18,COc1ccc(NC2CCN(C(=O)OC(C)(C)C)CC2)cc1,inactive: 1.13%
19,CN1CCN(CCOC(=O)C(O)(c2ccccc2)c2ccccc2)CC1,inactive: 2.57%
20,O=C(NCC1(N2CCOCC2)CCCCC1)c1cc(=O)[nH]c2ccccc12,inactive: 0.42%
21,COc1cc(C(=O)NCC2(N3CCCCC3)CCCCC2)ccc1OC(F)F,inactive: -2.36%
22,O=C(NCC1(N2CCCCC2)CCCCC1)c1cccc(C(F)(F)F)c1,inactive: -2.36%
